Biological target: T1, PTH1R‐P132L (Homo sapiens, UniProt Q03431, P132L)
T1 construct: expressed in transfected cells; plasmid TG-395 in pCDNA1
T1 sequence (Q03431 27-593 E90Y/S91D/E92V/E93P/K95Y/E96A/P132L): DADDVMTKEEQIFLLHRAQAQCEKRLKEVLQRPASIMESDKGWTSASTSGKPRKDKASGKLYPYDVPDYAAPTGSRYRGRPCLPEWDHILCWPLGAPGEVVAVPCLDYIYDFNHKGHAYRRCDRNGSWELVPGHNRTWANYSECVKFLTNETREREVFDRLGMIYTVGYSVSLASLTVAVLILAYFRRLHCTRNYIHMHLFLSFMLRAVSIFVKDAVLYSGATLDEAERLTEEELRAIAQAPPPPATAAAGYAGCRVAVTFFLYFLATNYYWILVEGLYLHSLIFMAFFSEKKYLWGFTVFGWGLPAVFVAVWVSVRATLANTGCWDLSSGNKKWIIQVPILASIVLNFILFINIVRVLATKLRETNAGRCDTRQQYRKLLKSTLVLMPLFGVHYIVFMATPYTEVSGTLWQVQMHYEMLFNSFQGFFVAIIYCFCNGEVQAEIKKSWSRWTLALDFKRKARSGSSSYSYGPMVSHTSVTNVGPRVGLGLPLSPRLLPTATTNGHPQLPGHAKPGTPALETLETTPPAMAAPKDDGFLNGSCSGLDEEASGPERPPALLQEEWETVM
Assay: GloSensor cAMP signaling assay in transiently transfected GS-22a cells
Type: cell-based
Details: Table 1, cAMP-dependent peak luminescence, mean ± SEM of five experiments
Method: GS‐22a cells are derived from HEK293 cells (American Type Culture Collection [ATCC], Manassas, VA, USA; CRL‐1573) by stably transfection with the luciferase‐based GloSensor (Promega, San Luis Obispo, CA, USA) cAMP reporter plasmid pGloSensor‐22F. The cells were cultured in Dulbecco's modified Eagle medium (DMEM) supplemented with fetal bovine serum (10%) in a humidified incubator containing 5% CO2 and set at 37°C, and seeded into 96‐well or six‐well plates for transient DNA transfection and functional assays. […]
PTH1R‐mediated cAMP signaling was assessed via the GloSensor cAMP reporter in GS‐22a cells in white 96‐well plates. […] For each plate, the media was replaced with CO2‐independent media (Thermo Fisher Scientific; Cat. No. 18045088) containing luciferin (0.5mM) and the plate was placed into a PerkinElmer Envision plate reader and cAMP‐dependent luminescence, as counts per second (cps), was measured at 2‐minute intervals for 15 minutes, during which time luciferin uptake occurred and luminescence reached a near steady‐state baseline. The plate was then removed from the plate reader, media (vehicle) or test ligands were added at varying concentrations, and luminescence was again measured at 2‐minute intervals for an additional 30–60 minutes. […]

## CC[C@H](C)[C@H](NC(=O)[C@H](CCC(=O)O)NC(=O)[C@H](CO)NC(=O)[C@@H](NC(=O)[C@@H](N)CO)C(C)C)C(=O)N[C@@H](CCC(N)=O)C(=O)N[C@@H](CC(C)C)C(=O)N[C@@H](CCSC)C(=O)N[C@@H](Cc1cnc[nH]1)C(=O)N[C@@H](CC(N)=O)C(=O)N[C@@H](CC(C)C)C(=O)NCC(=O)N[C@@H](CCCCN)C(=O)N[C@@H](Cc1cnc[nH]1)C(=O)N[C@@H](CC(C)C)C(=O)N[C@@H](CC(N)=O)C(=O)N[C@@H](CO)C(=O)N[C@@H](CCSC)C(=O)N[C@@H](CCC(=O)O)C(=O)N[C@@H](CCCNC(=N)N)C(=O)N[C@H](C(=O)N[C@@H](CCC(=O)O)C(=O)N[C@@H](Cc1c[nH]c2ccccc12)C(=O)N[C@@H](CC(C)C)C(=O)N[C@@H](CCCNC(=N)N)C(=O)N[C@@H](CCCCN)C(=O)N[C@@H](CCCCN)C(=O)N[C@@H](CC(C)C)C(=O)N[C@@H](CCC(N)=O)C(=O)N[C@@H](CC(=O)O)C(=O)N[C@H](C(=O)N[C@@H](Cc1cnc[nH]1)C(=O)N[C@@H](CC(N)=O)C(=O)N[C@@H](Cc1ccccc1)C(N)=O)C(C)C)C(C)C [PTH(1‐34), human(h)PTH(1‐34)]
  EC50: 3.47 nM

Reference: PMC9189904, “Functional Properties of Two Distinct PTH1R Mutants Associated With Either Skeletal Defects or Pseudohypoparathyroidism” (JBMR Plus, 2022)
